The values that follow come from US8937048B2, “Anti-angiogenic compounds” (Covx Technologies Ireland, Limited, priority 2008, dated 2015).

The target of the test is T1, human angiopoietin-2 protein (Homo sapiens, UniProt O15123).
T1 construct: purchased R&D Systems
T1 sequence (O15123 19-496): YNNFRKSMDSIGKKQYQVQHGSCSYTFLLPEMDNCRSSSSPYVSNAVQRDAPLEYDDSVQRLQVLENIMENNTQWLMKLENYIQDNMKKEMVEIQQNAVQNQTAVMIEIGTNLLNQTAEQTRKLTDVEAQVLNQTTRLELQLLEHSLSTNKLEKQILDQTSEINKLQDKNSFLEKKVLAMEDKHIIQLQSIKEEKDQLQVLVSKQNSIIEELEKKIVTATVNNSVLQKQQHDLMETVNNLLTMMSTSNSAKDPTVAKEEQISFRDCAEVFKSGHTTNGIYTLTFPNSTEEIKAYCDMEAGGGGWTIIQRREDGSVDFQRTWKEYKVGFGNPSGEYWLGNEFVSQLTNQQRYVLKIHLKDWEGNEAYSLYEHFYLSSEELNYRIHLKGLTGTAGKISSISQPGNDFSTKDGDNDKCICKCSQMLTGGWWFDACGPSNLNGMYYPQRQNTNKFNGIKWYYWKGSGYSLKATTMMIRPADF
The test can be described thus: Ang2 competitive ELISA (Ang-2 coated, Tie-2-Fc competition). It is filed as binding. The note with it: Table 6, column P. The procedure:
The ability of Ang2 binding compounds to interact with Ang2 was measured by competition with Tie-2. These tests were described in US2008166364 (and also in PCT/IE2007/000110), whose contents are herein incorporated by reference in their entirety. In particular, those portions of PCT/IE2007/000110 and US2008166364 detailing the advantages and disadvantages of various Ang2-binding peptides, and the advantages and disadvantages of covalently linking certain Ang2-binding peptides to catalytic antibodies (and those portions specifically relating to linking to h38C2), as well as the advantages and disadvantages of using specific residues of the respective Ang2-specific peptide as the linking residue (in this context, linking residue meaning the residue covalently linked to the linker (for example as used herein in Example 4)). For competitive ELISA, human angiopoietin-2 protein and Tie-2-Fc (R&D Systems) were reconstituted without carrier protein. Mouse anti-human Tie-2 (Pharmingen) was used as the primary antibody and goat anti-mouse-IgG 1-HRP (Pierce) was used as the secondary antibody. TMB substrate from Pierce was used.
High-binding half-well plates were coated with Ang-2 (100 ng/well) in 50 W PBS and incubated at 4° C. overnight. […] Color development was monitored and stopped with 25 μl of 2 M H2SO4. OD450 nm with a correction wavelength of 540 nm was measured.

The term IC50 denotes the point on the concentration scale where inhibition reaches its midpoint. In turn, `CSCC[C@H](NC(=O)[C@H](Cc1ccccc1)NC(=O)[C@H](CCC(N)=O)NC(=O)[C@H](CC(=O)O)NC(=O)[C@H](Cc1ccc(O)cc1)NC(=O)[C@H](CC(C)C)NC(=O)[C@@H](NC(=O)[C@H](CCCCN)NC(=O)[C@H](CC(=O)O)NC(=O)[C@H](CC(C)C)NC(=O)[C@H](CCC(=O)O)NC(=O)[C@H](CC(=O)O)NC(=O)[C@H](CC(C)C)NC(=O)[C@@H]1CCCN1C(=O)[C@H](CCC(N)=O)NC(=O)[C@H](Cc1ccc(O)cc1)NC(=O)[C@H](CCCCNC(C)=O)NC(=O)[C@H](CCC(N)=O)NC(C)=O)[C@@H](C)O)C(=O)N[C@@H](CC(C)C)C(=O)N[C@@H](CCC(N)=O)C(=O)N[C@@H](CCC(N)=O)C(=O)NCC(N)=O` [Compound 4022] displayed an IC50 of 14.4 nM.
